# Measured values published in patent US8959984B2, “Proteome-wide quantification of small molecule binding to cellular target proteins” (priority 2007, dated 2015).
# Protein sequences, listed by entry. Tags and fused reporters are not part of them. Lines headed by an entry give the natural chain unless they say otherwise; changes in a name come on top.
# UniProt Q00536: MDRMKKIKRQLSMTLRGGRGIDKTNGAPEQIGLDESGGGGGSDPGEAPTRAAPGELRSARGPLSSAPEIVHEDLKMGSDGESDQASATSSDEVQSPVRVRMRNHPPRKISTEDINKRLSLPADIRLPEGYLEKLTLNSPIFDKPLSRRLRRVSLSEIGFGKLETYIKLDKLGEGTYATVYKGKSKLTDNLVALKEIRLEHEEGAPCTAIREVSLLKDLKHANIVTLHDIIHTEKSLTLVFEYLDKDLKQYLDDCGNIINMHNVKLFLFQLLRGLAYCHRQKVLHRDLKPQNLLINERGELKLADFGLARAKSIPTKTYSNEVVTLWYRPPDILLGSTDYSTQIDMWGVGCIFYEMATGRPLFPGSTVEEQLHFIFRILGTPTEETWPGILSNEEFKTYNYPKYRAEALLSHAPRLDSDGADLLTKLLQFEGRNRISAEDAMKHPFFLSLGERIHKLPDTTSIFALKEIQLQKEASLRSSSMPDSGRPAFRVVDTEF
# UniProt Q15418, whole entry: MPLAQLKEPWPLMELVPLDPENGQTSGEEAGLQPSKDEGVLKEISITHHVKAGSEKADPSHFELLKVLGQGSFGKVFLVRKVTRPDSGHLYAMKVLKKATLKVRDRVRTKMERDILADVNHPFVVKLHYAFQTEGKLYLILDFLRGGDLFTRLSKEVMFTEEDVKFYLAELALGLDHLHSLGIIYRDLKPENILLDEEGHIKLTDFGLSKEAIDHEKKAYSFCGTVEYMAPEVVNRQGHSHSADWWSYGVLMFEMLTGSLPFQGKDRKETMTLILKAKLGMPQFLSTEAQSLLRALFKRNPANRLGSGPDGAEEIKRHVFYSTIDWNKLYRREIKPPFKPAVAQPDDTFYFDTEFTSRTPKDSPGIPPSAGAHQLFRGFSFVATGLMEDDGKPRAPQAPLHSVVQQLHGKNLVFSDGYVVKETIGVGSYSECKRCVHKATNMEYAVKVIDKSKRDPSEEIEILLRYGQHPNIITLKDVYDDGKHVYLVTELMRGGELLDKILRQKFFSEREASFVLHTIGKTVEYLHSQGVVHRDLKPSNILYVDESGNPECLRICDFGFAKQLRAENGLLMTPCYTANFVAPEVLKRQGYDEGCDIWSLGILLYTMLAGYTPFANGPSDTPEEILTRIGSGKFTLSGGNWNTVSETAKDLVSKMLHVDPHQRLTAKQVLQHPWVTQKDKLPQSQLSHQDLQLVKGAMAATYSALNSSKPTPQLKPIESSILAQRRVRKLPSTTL
# UniProt Q07002: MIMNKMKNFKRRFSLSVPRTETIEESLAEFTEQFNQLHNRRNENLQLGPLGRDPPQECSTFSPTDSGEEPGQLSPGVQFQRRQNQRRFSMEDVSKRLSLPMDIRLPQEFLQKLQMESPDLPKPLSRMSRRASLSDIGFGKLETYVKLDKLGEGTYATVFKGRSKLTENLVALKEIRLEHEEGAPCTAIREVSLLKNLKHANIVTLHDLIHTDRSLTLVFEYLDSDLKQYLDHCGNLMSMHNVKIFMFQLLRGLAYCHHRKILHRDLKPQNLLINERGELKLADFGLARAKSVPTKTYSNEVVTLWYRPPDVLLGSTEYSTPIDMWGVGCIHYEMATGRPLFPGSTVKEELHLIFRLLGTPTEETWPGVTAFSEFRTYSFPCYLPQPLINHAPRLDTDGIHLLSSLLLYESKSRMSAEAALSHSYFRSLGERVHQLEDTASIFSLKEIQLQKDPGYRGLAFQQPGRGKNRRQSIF
# Experiments:
# Experiment in all cases: Ki determination for immobilized VI16742: two consecutive incubations, control beads, ligand concentration and incubation time controls (Tables 7, 8)
# Assay type in all cases: binding
# [1] = target: cellular target proteins in HeLa cell lysate (Homo sapiens, UniProt Q00536); conditions: Ki (VI16742), PCTAIRE1 (PCTK1) IPI00549858
# Description: (§1) In an alternative implementation of the chemical proteomic approach according to the invention, the broadly-selective pyrido[2,3-d]pyrimidine-based kinase inhibitor VI16742 has been used for affinity capture (FIG. 10a). […] As shown by gene ontology analysis, the corresponding molecular functions were highly over-represented in proteins specifically retained by the inhibitor resin (FIG. 10b).
# (§2) Cysteine carbamidomethylation was set as a fixed modification and N-acetyl protein and oxidized methionine were allowed as variable modifications. Spectra that were determined to result from heavy labeled peptides in the pre-search detection of SILAC partners by MaxQuant were searched with the fixed modifications Lys^4, Lys^8, Arg^6 and Arg^10, whereas MS/MS spectra for which no SILAC state could be assigned before database searching were searched with Lys^4, Lys^8, Arg^6 and Arg^10 as variable modifications. The mass tolerance was set to 5 ppm for monoisotopic precursor ions and to 0.5 Da for MS/MS peaks. The minimum peptide length was set to 6 amino acids and up to three missed cleavages and three isotopically labeled amino acids were permitted per peptide. The accepted false discovery rate (FDR) was 1% for the proteins and peptides. The cut-off for the posterior error probability (PEP) of peptides was set to 10%. Peptide PEPs were determined by generating Mascot score and peptide-length-dependent histograms for both the forward and the reverse hits and then deriving the probability of a false identification for a given top-scoring peptide using Bayes' theorem. The PEPs of peptides belonging to the same proteins were then multiplied. Each peptide sequence was considered only once with the lowest PEP determined in case of multiple sequencing of the same isotopic pattern or of peptide species with different SILAC, charge or modification states. Proteins were then sorted according to their products of their peptide PEPs and included until a FDR of 1% was reached according to the fraction of reverse proteins contained in the protein list. In addition to the FDR threshold applied for protein identification, proteins were only included when they were identified with at least two peptides (of which one was required to be unique for the protein) and quantified if at least on quantifiable SILAC pair was associated with them. Outliers were not removed as protein ratios were calculated as the median instead of the average of all peptide ratios. For peptides shared among different identified proteins, SILAC ratios were only considered for the ratio of the protein identified with the highest number of unique peptides. Protein ratios for the different in vitro association experiments were corrected for the initial SILAC pooling ratio, which was determined from the median of protein ratios in pooled SILAC-encoded cell extracts.
# [2] = target: T1, cellular target proteins in HeLa cell lysate (Homo sapiens, UniProt P48426); conditions: Ki (VI16742), PIP4K2A IPI00009688
# T1 sequence (P48426 1-406): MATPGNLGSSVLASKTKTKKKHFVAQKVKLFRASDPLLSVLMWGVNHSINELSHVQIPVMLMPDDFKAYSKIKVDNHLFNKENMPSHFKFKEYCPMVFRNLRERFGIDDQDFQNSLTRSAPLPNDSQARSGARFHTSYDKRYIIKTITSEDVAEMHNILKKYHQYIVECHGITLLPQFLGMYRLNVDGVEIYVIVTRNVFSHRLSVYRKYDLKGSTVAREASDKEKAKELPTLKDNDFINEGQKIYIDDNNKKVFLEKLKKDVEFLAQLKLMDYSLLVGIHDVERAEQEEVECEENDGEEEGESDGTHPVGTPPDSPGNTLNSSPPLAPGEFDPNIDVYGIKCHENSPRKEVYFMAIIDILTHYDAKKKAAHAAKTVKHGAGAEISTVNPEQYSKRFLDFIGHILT
# Description: as §1, §2
# [3] = target: cellular target proteins in HeLa cell lysate (Homo sapiens, UniProt Q15418); conditions: Ki (VI16742), RSK3 (RPS6KA1) IPI00017305
# Description: as §1, §2
# [4] = target: T2, cellular target proteins in HeLa cell lysate (Homo sapiens, UniProt O75385); conditions: Ki (VI16742), ULK1 IPI00289357
# T2 sequence (O75385 1-1050): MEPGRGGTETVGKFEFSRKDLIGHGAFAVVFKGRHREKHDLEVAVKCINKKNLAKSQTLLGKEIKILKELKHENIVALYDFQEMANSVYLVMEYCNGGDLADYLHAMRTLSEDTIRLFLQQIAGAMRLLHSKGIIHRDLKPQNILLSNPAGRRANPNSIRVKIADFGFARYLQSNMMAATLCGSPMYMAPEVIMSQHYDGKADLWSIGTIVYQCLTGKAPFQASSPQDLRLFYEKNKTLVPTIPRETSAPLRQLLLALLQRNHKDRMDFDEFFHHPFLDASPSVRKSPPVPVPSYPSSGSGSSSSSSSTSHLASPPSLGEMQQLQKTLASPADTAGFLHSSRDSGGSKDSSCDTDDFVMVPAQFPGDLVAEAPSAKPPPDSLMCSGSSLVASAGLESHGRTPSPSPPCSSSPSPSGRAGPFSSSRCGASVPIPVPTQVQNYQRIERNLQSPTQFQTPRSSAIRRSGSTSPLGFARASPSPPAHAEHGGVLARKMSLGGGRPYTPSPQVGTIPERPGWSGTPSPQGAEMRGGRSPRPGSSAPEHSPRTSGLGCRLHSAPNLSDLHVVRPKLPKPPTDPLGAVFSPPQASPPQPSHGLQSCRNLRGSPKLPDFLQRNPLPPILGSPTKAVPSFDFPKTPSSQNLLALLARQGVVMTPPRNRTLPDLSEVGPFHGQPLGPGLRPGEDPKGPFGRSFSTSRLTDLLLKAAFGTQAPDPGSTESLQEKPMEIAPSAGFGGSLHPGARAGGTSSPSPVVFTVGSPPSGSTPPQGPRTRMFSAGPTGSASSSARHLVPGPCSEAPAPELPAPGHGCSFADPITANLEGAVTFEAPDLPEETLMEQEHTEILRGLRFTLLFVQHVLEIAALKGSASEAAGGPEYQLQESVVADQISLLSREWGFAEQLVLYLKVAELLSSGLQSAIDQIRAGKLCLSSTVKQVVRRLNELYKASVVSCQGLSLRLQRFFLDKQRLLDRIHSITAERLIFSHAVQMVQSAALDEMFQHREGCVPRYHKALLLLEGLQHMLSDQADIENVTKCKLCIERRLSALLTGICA
# Description: as §1, §2
# [5] = target: cellular target proteins in HeLa cell lysate (Homo sapiens, UniProt Q07002); conditions: Ki (VI16742), PCTAIRE3 (PCTK3) IPI00414292
# Description: as §1, §2
# [6] = target: cellular target proteins in HeLa cell lysate (Homo sapiens, UniProt P24941); conditions: Ki (VI16742), CDK2 IPI00031681
# Description: as §1, §2
structure (smiles),measurement,setting,value
CC(C)n1c(=O)ccc2cnc(Nc3ccc(OCCN)cc3)nc21 [V16742],Ki,[1],5.99 µM
same,Ki,[2],35.2 µM
same,Ki,[3],19.2 µM
same,Ki,[4],13 µM
same,Ki,[5],12.5 µM
same,Ki,[6],3.69 µM
